Assays:
Assay in all cases: Ki determination for immobilized VI16742: two consecutive incubations, control beads, ligand concentration and incubation time controls (Tables 7, 8)
Type in all cases: binding
[1] = target: cellular target proteins in HeLa cell lysate (Homo sapiens, UniProt Q9Y2U5)
[2] = target: T1, cellular target proteins in HeLa cell lysate (Homo sapiens, UniProt Q13470); conditions: Ki (VI16742), TNK1 IPI00552691
T1 sequence (Q13470 1-666): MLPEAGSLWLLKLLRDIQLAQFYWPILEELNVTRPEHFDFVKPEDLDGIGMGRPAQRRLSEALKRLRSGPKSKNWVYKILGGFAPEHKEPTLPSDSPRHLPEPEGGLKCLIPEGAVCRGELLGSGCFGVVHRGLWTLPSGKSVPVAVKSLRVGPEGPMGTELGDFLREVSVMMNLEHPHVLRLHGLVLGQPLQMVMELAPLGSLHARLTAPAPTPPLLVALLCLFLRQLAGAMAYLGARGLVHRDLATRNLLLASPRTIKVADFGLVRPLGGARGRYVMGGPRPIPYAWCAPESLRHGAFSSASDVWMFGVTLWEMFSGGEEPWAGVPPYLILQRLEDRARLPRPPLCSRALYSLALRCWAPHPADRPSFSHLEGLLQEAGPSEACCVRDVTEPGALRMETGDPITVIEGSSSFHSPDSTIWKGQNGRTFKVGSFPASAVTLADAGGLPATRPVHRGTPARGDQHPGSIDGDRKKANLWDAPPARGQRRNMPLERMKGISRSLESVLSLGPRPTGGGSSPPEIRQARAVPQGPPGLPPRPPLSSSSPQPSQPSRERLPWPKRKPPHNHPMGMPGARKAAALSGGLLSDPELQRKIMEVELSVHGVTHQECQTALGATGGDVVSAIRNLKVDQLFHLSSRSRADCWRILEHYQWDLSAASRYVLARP

Amino acid sequences for entries named in this document (tags omitted). A change or cut given only in a name is not applied to a line headed by its entry. Residues count along the entry.
UniProt Q9Y2U5: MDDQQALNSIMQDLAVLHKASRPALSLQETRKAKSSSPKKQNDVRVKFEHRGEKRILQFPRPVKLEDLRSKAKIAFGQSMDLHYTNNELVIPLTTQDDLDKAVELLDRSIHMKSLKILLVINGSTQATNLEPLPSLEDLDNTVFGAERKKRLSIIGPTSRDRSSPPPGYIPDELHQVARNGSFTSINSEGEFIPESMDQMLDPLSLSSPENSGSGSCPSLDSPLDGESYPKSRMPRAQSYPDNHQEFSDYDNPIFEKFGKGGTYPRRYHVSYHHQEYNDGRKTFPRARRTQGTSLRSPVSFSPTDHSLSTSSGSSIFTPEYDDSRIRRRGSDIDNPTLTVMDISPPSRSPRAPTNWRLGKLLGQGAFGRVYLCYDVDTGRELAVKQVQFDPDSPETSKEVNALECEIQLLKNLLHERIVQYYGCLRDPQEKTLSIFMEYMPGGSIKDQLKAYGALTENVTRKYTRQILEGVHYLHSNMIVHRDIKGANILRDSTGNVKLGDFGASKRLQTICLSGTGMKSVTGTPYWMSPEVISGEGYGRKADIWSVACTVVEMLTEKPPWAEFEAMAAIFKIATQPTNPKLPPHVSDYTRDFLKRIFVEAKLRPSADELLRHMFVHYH
UniProt P51812, whole entry: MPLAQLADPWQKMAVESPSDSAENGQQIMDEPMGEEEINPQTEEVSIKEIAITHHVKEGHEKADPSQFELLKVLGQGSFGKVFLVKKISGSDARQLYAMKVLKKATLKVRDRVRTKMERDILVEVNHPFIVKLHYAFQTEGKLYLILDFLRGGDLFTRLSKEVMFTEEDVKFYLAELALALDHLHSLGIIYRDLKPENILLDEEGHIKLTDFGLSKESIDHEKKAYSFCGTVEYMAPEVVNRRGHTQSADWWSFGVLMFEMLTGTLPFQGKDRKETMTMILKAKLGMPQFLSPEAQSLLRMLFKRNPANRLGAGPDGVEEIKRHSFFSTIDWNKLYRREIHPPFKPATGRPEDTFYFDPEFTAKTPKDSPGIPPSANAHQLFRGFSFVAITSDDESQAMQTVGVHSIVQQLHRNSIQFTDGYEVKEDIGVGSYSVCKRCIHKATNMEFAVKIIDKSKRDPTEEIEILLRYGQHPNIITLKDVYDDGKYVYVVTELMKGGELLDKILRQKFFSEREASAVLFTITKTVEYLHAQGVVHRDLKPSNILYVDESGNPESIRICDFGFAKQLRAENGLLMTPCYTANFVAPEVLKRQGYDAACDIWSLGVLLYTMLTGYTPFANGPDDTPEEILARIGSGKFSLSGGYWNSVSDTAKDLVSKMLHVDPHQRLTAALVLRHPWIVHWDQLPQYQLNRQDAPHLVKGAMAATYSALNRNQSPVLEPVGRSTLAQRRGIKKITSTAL
UniProt P45984: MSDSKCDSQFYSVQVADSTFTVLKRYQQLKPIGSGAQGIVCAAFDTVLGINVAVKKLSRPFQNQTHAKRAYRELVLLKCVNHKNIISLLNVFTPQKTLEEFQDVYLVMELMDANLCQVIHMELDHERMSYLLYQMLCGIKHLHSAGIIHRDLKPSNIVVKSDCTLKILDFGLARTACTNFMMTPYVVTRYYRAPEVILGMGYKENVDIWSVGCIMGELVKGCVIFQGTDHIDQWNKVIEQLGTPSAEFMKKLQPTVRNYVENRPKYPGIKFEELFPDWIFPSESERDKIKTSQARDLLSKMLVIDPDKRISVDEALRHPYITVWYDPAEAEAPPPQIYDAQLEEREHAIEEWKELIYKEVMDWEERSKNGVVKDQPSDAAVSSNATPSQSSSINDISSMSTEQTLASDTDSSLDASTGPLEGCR
UniProt P07948: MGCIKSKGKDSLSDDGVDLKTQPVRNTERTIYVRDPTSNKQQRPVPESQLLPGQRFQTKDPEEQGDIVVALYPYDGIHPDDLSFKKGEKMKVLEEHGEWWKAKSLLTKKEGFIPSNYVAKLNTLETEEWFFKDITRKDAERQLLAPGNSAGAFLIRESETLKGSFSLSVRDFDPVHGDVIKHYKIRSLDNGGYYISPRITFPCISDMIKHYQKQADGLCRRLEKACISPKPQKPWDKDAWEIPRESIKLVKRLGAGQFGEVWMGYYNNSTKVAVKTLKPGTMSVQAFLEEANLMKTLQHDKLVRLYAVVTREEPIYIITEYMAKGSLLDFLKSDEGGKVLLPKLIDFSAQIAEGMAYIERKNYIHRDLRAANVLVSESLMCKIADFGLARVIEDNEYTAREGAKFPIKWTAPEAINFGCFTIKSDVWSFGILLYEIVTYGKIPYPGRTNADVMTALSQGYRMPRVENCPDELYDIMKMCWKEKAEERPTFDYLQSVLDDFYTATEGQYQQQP
UniProt P54646: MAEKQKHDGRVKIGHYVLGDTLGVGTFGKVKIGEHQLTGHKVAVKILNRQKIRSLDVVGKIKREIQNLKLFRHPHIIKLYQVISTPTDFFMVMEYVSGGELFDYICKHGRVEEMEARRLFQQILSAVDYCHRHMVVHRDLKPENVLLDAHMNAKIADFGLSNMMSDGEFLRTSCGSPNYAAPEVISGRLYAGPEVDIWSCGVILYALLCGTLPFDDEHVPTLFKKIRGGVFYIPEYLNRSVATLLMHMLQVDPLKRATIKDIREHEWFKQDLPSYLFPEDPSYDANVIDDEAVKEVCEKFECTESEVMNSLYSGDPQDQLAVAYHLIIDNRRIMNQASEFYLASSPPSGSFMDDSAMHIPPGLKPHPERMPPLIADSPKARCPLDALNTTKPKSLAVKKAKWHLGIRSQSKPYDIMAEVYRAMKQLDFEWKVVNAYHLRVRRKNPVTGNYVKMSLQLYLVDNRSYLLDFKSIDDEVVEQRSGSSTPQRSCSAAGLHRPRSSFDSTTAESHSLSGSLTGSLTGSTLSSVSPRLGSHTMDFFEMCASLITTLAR
UniProt P54760, 16-987: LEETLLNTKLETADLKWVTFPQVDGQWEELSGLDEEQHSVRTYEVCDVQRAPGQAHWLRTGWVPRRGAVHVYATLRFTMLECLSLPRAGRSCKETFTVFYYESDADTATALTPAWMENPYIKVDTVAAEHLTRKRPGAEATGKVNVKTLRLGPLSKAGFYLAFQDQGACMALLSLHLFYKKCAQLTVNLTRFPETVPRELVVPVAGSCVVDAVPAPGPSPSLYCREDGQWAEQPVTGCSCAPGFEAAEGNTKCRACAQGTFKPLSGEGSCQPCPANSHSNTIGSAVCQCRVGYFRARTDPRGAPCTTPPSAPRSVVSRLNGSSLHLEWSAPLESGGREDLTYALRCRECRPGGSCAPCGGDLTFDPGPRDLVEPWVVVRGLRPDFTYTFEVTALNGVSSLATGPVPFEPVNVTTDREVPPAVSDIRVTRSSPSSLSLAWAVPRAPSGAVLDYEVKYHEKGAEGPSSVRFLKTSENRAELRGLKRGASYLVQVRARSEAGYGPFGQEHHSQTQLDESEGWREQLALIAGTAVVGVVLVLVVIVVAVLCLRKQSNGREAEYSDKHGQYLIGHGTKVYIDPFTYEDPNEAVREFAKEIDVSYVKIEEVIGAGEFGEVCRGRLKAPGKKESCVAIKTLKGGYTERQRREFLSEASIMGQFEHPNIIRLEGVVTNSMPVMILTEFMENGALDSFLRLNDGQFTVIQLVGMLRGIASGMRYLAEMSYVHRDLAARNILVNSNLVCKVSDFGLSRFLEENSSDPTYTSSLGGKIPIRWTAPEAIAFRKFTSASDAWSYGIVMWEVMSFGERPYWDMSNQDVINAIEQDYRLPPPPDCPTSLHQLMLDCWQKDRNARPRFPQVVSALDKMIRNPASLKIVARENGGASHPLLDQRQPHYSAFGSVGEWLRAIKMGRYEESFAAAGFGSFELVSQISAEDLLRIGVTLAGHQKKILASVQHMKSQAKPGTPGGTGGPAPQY
UniProt P16591: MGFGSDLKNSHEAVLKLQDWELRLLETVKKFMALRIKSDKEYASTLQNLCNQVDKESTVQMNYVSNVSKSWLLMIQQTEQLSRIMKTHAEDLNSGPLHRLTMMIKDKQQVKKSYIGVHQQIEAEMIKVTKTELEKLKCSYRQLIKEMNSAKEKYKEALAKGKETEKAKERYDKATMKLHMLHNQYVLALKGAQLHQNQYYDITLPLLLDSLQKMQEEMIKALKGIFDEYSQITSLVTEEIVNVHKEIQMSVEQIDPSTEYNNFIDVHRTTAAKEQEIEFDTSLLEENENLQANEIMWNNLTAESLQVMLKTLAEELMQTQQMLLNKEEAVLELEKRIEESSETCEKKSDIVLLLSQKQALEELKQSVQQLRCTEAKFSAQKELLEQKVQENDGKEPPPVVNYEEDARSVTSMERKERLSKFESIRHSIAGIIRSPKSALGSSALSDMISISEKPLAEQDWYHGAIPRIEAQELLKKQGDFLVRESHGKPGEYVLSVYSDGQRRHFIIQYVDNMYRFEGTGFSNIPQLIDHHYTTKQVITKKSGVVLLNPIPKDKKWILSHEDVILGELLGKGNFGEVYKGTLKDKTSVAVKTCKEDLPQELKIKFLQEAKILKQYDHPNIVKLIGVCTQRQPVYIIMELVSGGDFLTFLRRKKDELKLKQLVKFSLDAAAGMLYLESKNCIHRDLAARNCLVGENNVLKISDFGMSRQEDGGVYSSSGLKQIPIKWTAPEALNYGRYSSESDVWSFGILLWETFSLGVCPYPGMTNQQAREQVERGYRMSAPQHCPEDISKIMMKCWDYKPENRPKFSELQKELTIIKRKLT
UniProt P45983: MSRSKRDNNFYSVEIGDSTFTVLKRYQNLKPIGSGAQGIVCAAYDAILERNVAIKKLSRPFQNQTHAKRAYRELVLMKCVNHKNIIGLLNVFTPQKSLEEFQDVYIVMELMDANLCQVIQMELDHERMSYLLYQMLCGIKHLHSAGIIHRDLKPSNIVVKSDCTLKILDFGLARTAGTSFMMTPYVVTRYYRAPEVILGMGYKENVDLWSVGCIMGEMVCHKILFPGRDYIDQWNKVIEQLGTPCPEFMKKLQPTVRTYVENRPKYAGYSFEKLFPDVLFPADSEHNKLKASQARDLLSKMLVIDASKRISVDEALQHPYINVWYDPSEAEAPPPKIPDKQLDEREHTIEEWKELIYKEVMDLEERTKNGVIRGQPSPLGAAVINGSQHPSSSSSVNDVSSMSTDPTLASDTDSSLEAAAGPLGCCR
UniProt O94921: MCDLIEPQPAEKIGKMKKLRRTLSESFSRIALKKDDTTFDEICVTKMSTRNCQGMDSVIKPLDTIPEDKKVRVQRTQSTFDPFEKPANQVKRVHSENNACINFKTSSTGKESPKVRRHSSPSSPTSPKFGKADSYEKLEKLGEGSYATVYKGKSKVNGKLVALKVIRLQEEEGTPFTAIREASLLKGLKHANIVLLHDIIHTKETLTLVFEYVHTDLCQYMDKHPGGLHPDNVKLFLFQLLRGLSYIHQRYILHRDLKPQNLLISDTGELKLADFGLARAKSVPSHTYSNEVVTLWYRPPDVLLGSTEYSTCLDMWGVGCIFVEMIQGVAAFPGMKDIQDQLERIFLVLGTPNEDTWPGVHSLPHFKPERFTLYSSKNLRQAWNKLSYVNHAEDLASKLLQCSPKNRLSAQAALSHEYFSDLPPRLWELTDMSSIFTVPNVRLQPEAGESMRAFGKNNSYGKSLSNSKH
UniProt Q9UKI8: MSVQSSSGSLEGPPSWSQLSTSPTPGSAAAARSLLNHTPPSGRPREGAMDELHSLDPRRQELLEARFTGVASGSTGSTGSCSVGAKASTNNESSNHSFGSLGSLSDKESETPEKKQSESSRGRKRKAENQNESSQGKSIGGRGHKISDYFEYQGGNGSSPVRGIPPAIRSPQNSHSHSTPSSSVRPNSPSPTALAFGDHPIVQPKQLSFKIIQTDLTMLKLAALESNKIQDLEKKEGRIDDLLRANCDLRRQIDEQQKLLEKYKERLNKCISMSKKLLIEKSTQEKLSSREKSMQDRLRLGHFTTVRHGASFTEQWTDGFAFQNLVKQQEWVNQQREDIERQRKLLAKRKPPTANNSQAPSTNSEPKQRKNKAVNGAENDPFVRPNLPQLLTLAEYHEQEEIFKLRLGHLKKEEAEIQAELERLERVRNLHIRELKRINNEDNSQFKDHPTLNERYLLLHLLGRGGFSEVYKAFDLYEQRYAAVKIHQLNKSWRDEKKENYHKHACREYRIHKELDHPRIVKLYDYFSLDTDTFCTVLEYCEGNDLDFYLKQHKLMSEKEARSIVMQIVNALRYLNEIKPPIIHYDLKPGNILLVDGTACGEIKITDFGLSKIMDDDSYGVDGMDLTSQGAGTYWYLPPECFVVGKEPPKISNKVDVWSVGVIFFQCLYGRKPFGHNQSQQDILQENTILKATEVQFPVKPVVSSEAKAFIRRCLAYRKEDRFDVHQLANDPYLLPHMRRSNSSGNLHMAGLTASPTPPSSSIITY

[3] = target: cellular target proteins in HeLa cell lysate (Homo sapiens, UniProt P51812); conditions: Ki (VI16742), RSK2 (RPS6KA3) IPI00020898
[4] = target: T2, cellular target proteins in HeLa cell lysate (Homo sapiens, UniProt P63104); conditions: Ki (VI16742), YWHAZ IPI00021263
T2 sequence (P63104 1-245): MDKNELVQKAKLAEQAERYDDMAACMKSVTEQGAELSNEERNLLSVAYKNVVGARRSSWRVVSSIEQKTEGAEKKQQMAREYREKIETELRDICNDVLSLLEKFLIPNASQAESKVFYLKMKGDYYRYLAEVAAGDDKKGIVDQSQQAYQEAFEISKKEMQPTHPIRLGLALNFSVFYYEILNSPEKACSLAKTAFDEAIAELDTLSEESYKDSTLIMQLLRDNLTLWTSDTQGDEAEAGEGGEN

[5] = target: cellular target proteins in HeLa cell lysate (Homo sapiens, UniProt P45984); conditions: Ki (VI16742), JNK2 (MAPK9) IPI00024673
[6] = target: cellular target proteins in HeLa cell lysate (Homo sapiens, UniProt P07948); conditions: Ki (VI16742), LYN IPI00872474
[7] = target: cellular target proteins in HeLa cell lysate (Homo sapiens, UniProt P54646); conditions: Ki (VI16742), AMPKa2 (PRKAA2) IPI00307755
[8] = target: cellular target proteins in HeLa cell lysate (Homo sapiens, UniProt P54760); conditions: Ki (VI16742), EphB4 (EPHB4) IPI00289342
[9] = target: cellular target proteins in HeLa cell lysate (Homo sapiens, UniProt P16591); conditions: Ki (VI16742), FER IPI00029263
[10] = target: cellular target proteins in HeLa cell lysate (Homo sapiens, UniProt P45983); conditions: Ki (VI16742), JNK1 (MAPK8) IPI00220305
[11] = target: cellular target proteins in HeLa cell lysate (Homo sapiens, UniProt O94921)
[12] = target: cellular target proteins in HeLa cell lysate (Homo sapiens, UniProt Q9UKI8); conditions: Ki (VI16742), TLK1 IPI00333559

**Q.** How did the Ki [1] turn out when CC(C)n1c(=O)ccc2cnc(Nc3ccc(OCCN)cc3)nc21 [V16742] was run?
**A.** 42.2 µM

**Q.** What about the Ki [2] of the same molecule?
**A.** 3.81 µM

**Q.** What about the Ki [3] of the same molecule?
**A.** 62.2 µM

**Q.** And the Ki [4]?
**A.** 36.3 µM

**Q.** And the Ki [5]?
**A.** 3.43 µM

**Q.** What about the Ki [6] of the same molecule?
**A.** 45.4 µM

**Q.** And the Ki [7]?
**A.** 17.8 µM

**Q.** And the Ki [8]?
**A.** 41.9 µM

**Q.** What about the Ki [9] of the same molecule?
**A.** 6.26 µM

**Q.** And the Ki [10]?
**A.** 3.01 µM

**Q.** What about the Ki [11] of the same molecule?
**A.** 6.52 µM

**Q.** What about the Ki [12] of the same molecule?
**A.** 49.3 µM
